According to patent US20150141411A1, “SUBSTITUTED 3,4-DIHYDRO-2H-PYRIDO[1,2-A]PYRAZINE-1,6-DIONE DERIVATIVES USEFUL FOR THE TREATMENT OF (INTER ALIA) ALZHEIMER'S DISEASE” (Janssen Pharmaceuticals, Inc., priority 2012, published 2015):
pIC50: −log10 of the molar value.

Experiments:
[1] = molecular target: T1, γ-secretase (Homo sapiens, UniProt P49768); test: Screening for γ-secretase-modulating activity: Aβtotal in supernatant of SKNBE2 cells carrying hAPP 695 wild type (Alphalisa)
Procedure: (§1) Screening was carried out using SKNBE2 human neuroblastoma cells carrying the hAPP 695—wild type, grown in Dulbecco's Modified Eagle's Medium/Nutrient mixture F-12 (DMEM/NUT-mix F-12) (HAM) provided by Invitrogen (cat no. 10371-029) containing 5% Serum/Fe supplemented with 1% non-essential amino acids, 1-glutamine 2 mM, Hepes 15 mM, penicillin 50 U/ml (units/ml) en streptomycin 50 μg/ml. Cells were grown to near confluency.
(§2) The screening was performed using a modification of the assay as described in Citron et al (1997) Nature Medicine 3: 67. Briefly, cells were plated in a 384-well plate at 10^4 cells/well in Ultraculture (Lonza, BE12-725F) supplemented with 1% glutamine (Invitrogen, 25030-024), 1% non-essential amino acid (NEAA), penicillin 50 U/ml en streptomycin 50 μg/ml in the presence of test compound at different test concentrations. The cell/compound mixture was incubated overnight at 37° C., 5% CO2. The next day the media were assayed by two sandwich immuno-assays, for Aβ42 and Aβ total.
(§3) Aβtotal and Aβ42 concentrations were quantified in the cell supernatant using the Aphalisa technology (Perkin Elmer). Alphalisa is a sandwich assay using biotinylated antibody attached to streptavidin coated donorbeads and antibody conjugated to acceptor beads. In the presence of antigen, the beads come into close proximity. The excitation of the donor beads provokes the release of singlet oxygen molecules that trigger a cascade of energy transfer in the acceptor beads, resulting in light emission. To quantify the amount of Aβ42 in the cell supernatant, monoclonal antibody specific to the C-terminus of Aβ42 (JRF/cAβ42/26) was coupled to the receptor beads and biotinylated antibody specific to the N-terminus of Aβ (JRF/AβN/25) was used to react with the donor beads. To quantify the amount of Aβtotal in the cell supernatant, monoclonal antibody specific to the N-terminus of Aβ (JRF/AβN/25) was coupled to the receptor beads and biotinylated antibody specific to the mid region of Aβ (biotinylated 4G8) was used to react with the donor beads.
(§4) To obtain the values reported in Table 3, the data are calculated as percentage of the maximum amount of amyloid Beta 42 measured in the absence of the test compound. The sigmoidal dose response curves were analyzed using non-linear regression analysis with percentage of the control plotted against the log concentration of the compound. A 4-parameter equation was used to determine the IC50.

[2] = molecular target: T1, γ-secretase; test: Screening for γ-secretase-modulating activity: Aβ42 in supernatant of SKNBE2 cells carrying hAPP 695 wild type (Alphalisa)
Procedure: as §1, §2, §3, §4

[3] = test system: Aβ38; test: In vivo efficacy: brain soluble Aβ38 in non-transgenic rodents (MSD electrochemiluminescence multiplex); settings: dose 30 mg/kg oral dosing, brain soluble fraction, animals sacrificed after 4 h
Source text: To determine whether acute administration of an Aβ38 increasing agents would increase Aβ38 levels in vivo, non-transgenic rodents, e.g. mice or rats were used. Animals treated with the Aβ38 increasing agents were examined and compared to those untreated or treated with vehicle and brain levels of soluble Aβ42, Aβ40, Aβ38, and Aβ37 were quantitated by MSD electrochemiluminescence detection technology. Treatment periods varied from hours (h) to days and were adjusted based on the results of the Aβ38 increase once a time course of onset of effect could be established.
A typical protocol for measuring Aβ38 increase in vivo is shown but it is only one of many variations that could be used to optimize the levels of detectable Aβ. For example, Aβ38 increasing agents were formulated in 20% of Captisol® (a sulfobutyl ether of β-cyclodextrin) in water or 20% hydroxypropyl βcyclodextrin. The Aβ38 increasing agents were administered as a single oral dose or by any acceptable route of administration to overnight fasted animals. After 4 h, the animals were sacrificed and Aβ38 levels were analysed.
Blood was collected by decapitation and exsanguinations in EDTA-treated collection tubes. Blood was centrifuged at 1900 g for 10 minutes (min) at 4° C. and the plasma recovered and flash frozen for later analysis. The brain was removed from the cranium and hindbrain. The cerebellum was removed and the left and right hemisphere were separated. The left hemisphere was stored at −18° C. for quantitative analysis of test compound levels. The right hemisphere was rinsed with phosphate-buffered saline (PBS) buffer and immediately frozen on dry ice and stored at −80° C. until homogenization for biochemical assays.
Mouse brains from non-transgenic animals were resuspended in 8 volumes of 0.4% DEA (diethylamine)/50 mM NaCl containing protease inhibitors (Roche-11873580001 or 04693159001) per gram of tissue, e.g. for 0.158 g brain, add 1.264 ml of 0.4% DEA. All samples were homogenized in the FastPrep-24 system (MP Biomedicals) using lysing matrix D (MPBio #6913-100) at 6 m/s for 20 seconds. […] Nine parts of supernatant were neutralized with 1 part 0.5 M Tris-HCl pH 6.8 and used to quantify Aβ.
To quantify the amount of Aβ42, Aβ40, Aβ38, and Aβ37 in the soluble fraction of the brain homogenates, simultaneous specific detection of Aβ42, Aβ40, Aβ38, and Aβ37 was performed using MSD's electro-chemiluminescence multiplex detection technology. […] Following this incubation and subsequent wash steps the assay was finished by adding read buffer according to the manufacturer's instructions (MesoScale Discovery, Gaitherburg, Md.).
The SULFO-TAG emits light upon electrochemical stimulation initiated at the electrode. MSD Sector instrument SI6000 was used for signal read-out. […]

[4] = read-out: IC50 Aβtotal, SKNBE2 human neuroblastoma cells carrying hAPP 695 wild type, overnight incubation, Aβtotal in cell supernatant
[5] = read-out: IC50 Aβ42, SKNBE2 human neuroblastoma cells carrying hAPP 695 wild type, overnight incubation, Aβ42 in cell supernatant
[6] = untreated animals (Ctrl) set at 100

Row | pIC50 [1, 4] | pIC50 [2, 5] | pIC50 ([1]; read-out: IC50 Aβtotal, SKNBE2 human neuroblastoma cells carrying hAPP 695 wild type, overnight incubation, Aβtotal in cell supernatant, tested form: HCl) | pIC50 ([2]; read-out: IC50 Aβ42, SKNBE2 human neuroblastoma cells carrying hAPP 695 wild type, overnight incubation, Aβ42 in cell supernatant, tested form: HCl) | SMILES | Aβ38 (% vs Ctrl)_Mean [3, 6] [% vs Ctrl] | Aβ38 (% vs Ctrl)_Mean ([3]; untreated animals (Ctrl) set at 100, tested form: HCl) [% vs Ctrl]
1 | < 5.00 | 7.52 | – | – | Cc1cn(-c2ccc3n(c2=O)CCN(CC2(c4cc(C(F)(F)F)cc(C(F)(F)F)c4)CCC2)C3=O)cn1 | 185 | –
2 | < 5.00 | 7.40 | – | – | Cc1cn(-c2ccc3n(c2=O)CCN(CC2(c4cc(C(F)(F)F)cc(C(F)(F)F)c4)CC2)C3=O)cn1 | 154 | –

Further lines, the compound ahead of its results:

Row | SMILES | pIC50 [1, 4] | pIC50 [2, 5] | pIC50 ([1]; read-out: IC50 Aβtotal, SKNBE2 human neuroblastoma cells carrying hAPP 695 wild type, overnight incubation, Aβtotal in cell supernatant, tested form: HCl) | pIC50 ([2]; read-out: IC50 Aβ42, SKNBE2 human neuroblastoma cells carrying hAPP 695 wild type, overnight incubation, Aβ42 in cell supernatant, tested form: HCl) | Aβ38 (% vs Ctrl)_Mean [3, 6] [% vs Ctrl] | Aβ38 (% vs Ctrl)_Mean ([3]; untreated animals (Ctrl) set at 100, tested form: HCl) [% vs Ctrl]
3 | Cc1cn(-c2ccc3n(c2=O)C[C@H](C)N(Cc2ccc(Cl)c(Cl)c2)C3=O)cn1 | < 5.00 | 5.94 | – | – | – | –
4 | Cc1cn(-c2ccc3n(c2=O)C[C@@H](C)N(C(C)c2cc(Cl)cc(C(F)(F)F)c2)C3=O)cn1 (single isomer, unassigned) [130] | < 5.00 | 6.80 | – | – | 182 | –
5 | Cc1cn(-c2ccc3n(c2=O)C[C@@H](C)N(CC2(c4cc(C(F)(F)F)cc(C(F)(F)F)c4)CC2)C3=O)cn1 | – | – | < 5.00 | 7.52 | – | 153
